Laboratory results: patent publication EP2481744A1, “Aromatic bis-phosphoramidate additives as flame retardants for polymers” (EMPA Eidgenössische Materialprüfungs- und Forschungsanstalt, priority 2011, dated 2012)

Experiments:
[1] = Solubility in deionized water (shaking flask, phosphorus content by ICP-OES); conditions: 0.5 gm in 50 ml deionized water, 21 °C, 16 hrs
[2] = Thermogravimetric analysis (TGA) of the synthesized compounds; assay type: physicochemical; conditions: neat compound, nitrogen, 10°C/min
[3] = Pyrolysis flow combustion calorimeter (PCFC) of the synthesized compounds; assay type: physicochemical; conditions: neat compound

**Q.** For `COP(=O)(Nc1ccc(NP(=O)(OC)OC)cc1)OC`, which Solubility [1] is on record?
**A.** 330 µg/mL (≈ 1020 µM)

**Q.** What about the Onset of decomposition [2] of the same compound?
**A.** 214 °C

**Q.** What about the “Residue at 500 °C” value [2] of the same compound?
**A.** 36

**Q.** What about the “Residue at 800 °C” value [2] of the same compound?
**A.** 20

**Q.** And the PHRR ([3]; PCFC)?
**A.** 201 W/g

**Q.** And the “Char at 800 °C” value ([3]; PCFC (% residue))?
**A.** 34

**Q.** And the THC ([3]; PCFC, nitrogen, 40 to 800°C, 1°C/sec, average of three samples)?
**A.** 7.99 kJ/g

Values after ≈ are worked out from the molar mass of the structure shown.
